# miR122 inh = miR-122 inhibition in Huh7 cells | Huh7 miR-122 Renilla luciferase sensor, 48 h; neutral wells = 0, positive control = 100 | activation (reporter increase), % at 12.5 µM | hit rate 0.3% among 340,000;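 active means mean replicate activation score at least 90 and every replicate individually at or above 90; inconclusive means only one of the two criteria met; inactive means neither criterion met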;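 further: higher luciferase means less miR-122 activity so hits act as miR-122 inhibitors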
# PGC1a acetyl inh = PGC1a acetylation modulation, inhibitor mode | U2OS PGC1a acetylation, AlphaScreen anti-acetyl-lysine; with virally co-expressed GCN5 acetyltransferase | inhibition, % at 15.6 µM | hit rate 0.17% among 350,000;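 active means every replicate shows inhibition of at least 40%; inconclusive means mean inhibition at least 40% but some replicate below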;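 further: 0% = neutral control wells and 100% = positive control wells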
# TRPM1 prom inh = MITF TRPM1 promoter inhibition in SK-MEL-5 cells; hit rate 0.83% among 330,000; inhibition, % at 12.5 µM; SK-MEL-5 TRPM1 promoter luciferase, 24 h; AID 488899;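 active means mean inhibition across replicates of 60% or more, whatever share of single replicates reaches that level; inconclusive means some that reach 60%, reason not given; inactive means mean inhibition across replicates below 60%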
# UUG fidelity = alters start codon recognition fidelity in yeast; S. cerevisiae UUG-firefly luciferase reporter, luminescence/redox ratio; activity score, % at 18.7 µM; actives 0.13% (n = 350,000); AID 602363;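 active = replicate mean at a twofold rise or more, about +100% in these data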;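 also: firefly luciferase made from a UUG start codon reports start codon fidelity; reporter light over untreated wells divided by growth signal over untreated wells; some hits fall short of that in this replicate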
# Wnt bcat act = activates Wnt/beta-catenin signaling in a reporter cell assay | activation, % at 9.35 µM | hit rate 1.2% among 300,000 | activator, plate reader; in the data active means activation above about 30%, passing the limit was not always enough; inconclusive means no clear call, values can overlap the other calls;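 further: 0% = neutral control wells and 100% = positive control wells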
# MITF act = activators of MITF-driven TRPM1 promoter activity in SK-MEL-5 cells; SK-MEL-5 TRPM1-promoter luciferase, 24 h; % of positive control, neutral wells = 0; hit rate 0.75% among 300,000; activation, % at 12.5 µM; AID 588334;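 active means mean activation of at least 80% with every replicate also reaching 80%; inconclusive means mean reaches 80% but some replicate falls short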;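 further: 0% = neutral control wells and 100% = parthenolide positive control wells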
# The depositor's hits bear a star; ? = inconclusive; · = no result given; [ ] = remark or other dose. Compounds with a hit are over-represented: about 2.1% of the library has one in this group of screens.
molecule	miR122 inh	PGC1a acetyl inh	TRPM1 prom inh	UUG fidelity	Wnt bcat act	MITF act
CCN(CC)c1ccc(C(=C2C=CC(=[N+](CC)CC)C=C2)c2ccc(N(CC)CC)cc2)cc1	-38	83*	·	-63	-25	·
Cc1ccc(NC(=O)N2CCC(c3ccccc3)C2)cc1C (stereo unspecified)	-14	10	-122	-31	56*	128*
O=C(Nc1ccc(Cl)cc1)N1CCC(c2ccccc2)C1 (stereo unspecified)	·	-8	-111	·	56*	116*
COc1ccc(C(=O)N2CCCC(c3ccccc3)C2)cc1 (stereo unspecified)	-4	·	-15	30	·	12
Cc1ccc(C2CCN(C(=O)Nc3ccccc3)C2)cc1 (stereo unspecified)	-5	-14	-82	-4	·	?
O=C(c1ccc(F)cc1)N1CCC(c2ccccc2)C1 (stereo unspecified)	-5	-2	-69	·	34*	·
CCOc1ccc(NC(=O)c2ccccn2)cc1	·	·	62*	·	-2	-61
CCOc1ccc(NC(=O)c2ccccc2-c2ccccc2C(=O)O)cc1	3	11	-88	-9	13	85*
CCOc1ccc(NC(=O)c2ccccc2CO)cc1	-4	·	-57	-50	·	45
CCOc1ccc(NC(=O)c2ccccc2OC)cc1	16	-7	-18	-9	46*	12
CCOc1ccc(NC(=O)c2ccccc2O)cc1	5	-1	-85	-24	·	82*
CCC(=O)N1[C@H](CO)[C@H](c2ccc(-c3ccc(F)cc3)cc2)[C@H]1CNC(C)=O	0[16.7 µM]	2	·	2	·	·
OC1CCN(c2c3c(nc4cc(-c5cccc(F)c5)nn24)CCCC3)CC1	4	-1	-85	-22	5	88*
CN(C)CCCNc1cc(-c2ccccc2)nc2cc(-c3cccc(F)c3)nn12	-4	-57	63*	-18	-4	·
Fc1cccc(-c2cc3nc4c(c(N5CCC6(CC5)OCCO6)n3n2)CCCC4)c1	1	·	-34	·	·	45
Cc1cccc(-c2cc3nc(C)cc(NCCCN(C)C)n3n2)c1	8	2	-15	-28	·	20
CN(CCO)c1c2c(nc3cc(-c4cccc(F)c4)nn13)CCCC2	18	·	-30	·	40*	·
CC=Cc1ccc2n(c1=O)C[C@H]1[C@H](CO)[C@@H](C(=O)NC3CCCCC3)N(CCC)[C@@H]21 (mixture of isomers)	8[16.7 µM]	-2	·	·	·	·
CNC[C@@H]1Oc2ccc(NC(=O)Cn3cnnn3)cc2CC(=O)N([C@H](C)CO)C[C@@H]1C	-4[16.7 µM]	-2	·	-8	·	·
COc1ccccc1CNC(=O)C[C@H]1C[C@@H]2c3cc(NS(=O)(=O)c4ccc(F)cc4)ccc3O[C@@H]2[C@@H](CO)O1	-5[16.7 µM]	-3	·	·	·	·

# Complete entries, quoted from the list.
# OC1CCN(c2c3c(nc4cc(-c5cccc(F)c5)nn24)CCCC3)CC1 is listed with miR122 inh: 4; PGC1a acetyl inh: -1; TRPM1 prom inh: -85; UUG fidelity: -22; Wnt bcat act: 5; MITF act: 88*
# CCN(CC)c1ccc(C(=C2C=CC(=[N+](CC)CC)C=C2)c2ccc(N(CC)CC)cc2)cc1 is listed with miR122 inh: -38; PGC1a acetyl inh: 83*; TRPM1 prom inh: ·; UUG fidelity: -63; Wnt bcat act: -25; MITF act: ·

# Next records
molecule	miR122 inh	PGC1a acetyl inh	TRPM1 prom inh	UUG fidelity	Wnt bcat act	MITF act
COc1ccc(C(=O)O/N=C(\N)c2ccc(Cl)cc2)cc1	5	-5	-90	-14	37*	89*
Cc1cc(/C(N)=N/OC(=O)c2ccc(Cl)cc2)no1	4	-15	-161	-38	0	·
N/C(=N\OC(=O)c1ccncc1)c1cccc([N+](=O)[O-])c1	-4	-7	-79	-9	14	·
Cc1cc(/C(N)=N/OC(=O)c2cccc(Cl)c2)no1	-4	-5	-42	-18	38*	·
Cc1cccc(C(=O)O/N=C(\N)c2ccc(Cl)cc2)c1	·	·	-28	·	44*	27
Cc1cccc(/C(N)=N/OC(=O)c2ccncc2)c1	-6	-3	-68	-26	34*	69
CO[C@@H]1CN(C)C(=O)c2cc(NC(=O)C3CCC3)ccc2OC[C@@H](C)NC[C@H]1C	-4[16.7 µM]	·	·	-18	·	·
CC(=O)Nc1cc(S(=O)(=O)Nc2ccc(C)cc2)c(C)cc1C	129*	3	0	-5	-1	4
Cc1ccc(OC(C)C(=O)Nc2ccc(C)c(S(=O)(=O)Nc3ccc(C)cc3C)c2)cc1 (stereo unspecified)	196*	·	6	·	·	-4
Cc1ccc(NC(=O)/C=C/c2ccc([N+](=O)[O-])s2)c(C)c1	·	·	109*	·	-8	-110
Cc1cc([N+](=O)[O-])ccc1NC(=O)/C=C/c1cccs1	·	·	-62	·	35*	70
Cc1cccc(NC(=O)/C=C/c2ccc([N+](=O)[O-])s2)c1	·	·	95*	·	·	-95
Cc1ccc(NC(=O)/C=C/c2ccc([N+](=O)[O-])s2)cc1	·	·	82*	·	35*	-80
Cc1cccc(-c2ccc([C@@H]3[C@H]4CN(S(=O)(=O)c5cccc(F)c5)CC(=O)N4[C@H]3CO)cc2)c1	·	2	·	·	·	·
COC(=O)C(Cc1c[nH]c2ccccc12)NC(=O)c1ccc2nc[nH]c2c1 (stereo unspecified)	4	·	-46	-19	36*	39
CN1c2ccc(-c3cccc(F)c3)cc2[C@@H]2[C@@H](CCN2C(=O)C2CC2)[C@H]1CO	6[16.7 µM]	-10	·	35	·	·
CN1c2ccc(-c3cccc(F)c3)cc2[C@H]2[C@H](CCN2C(=O)c2ccccc2F)[C@H]1CO	107*[16.7 µM]	20	·	12	·	·
CN1c2ccc(-c3cccc(F)c3)cc2[C@H]2[C@H](CCN2C(=O)C2CC2)[C@H]1CO	100*[16.7 µM]	2	·	38	·	·
Cc1ccc(NC2=C(Cl)C(=O)c3ccccc3C2=O)cc1	1	?	103*	-25	-12	-103
O=C1C(Cl)=C(Nc2ccc(O)cc2)C(=O)c2ccccc21	·	·	97*	·	-21	-96

# Four entries drawn at random from those above, as already listed:
molecule	miR122 inh	PGC1a acetyl inh	TRPM1 prom inh	UUG fidelity	Wnt bcat act	MITF act
CN1c2ccc(-c3cccc(F)c3)cc2[C@H]2[C@H](CCN2C(=O)c2ccccc2F)[C@H]1CO	107*[16.7 µM]	20	·	12	·	·
Cc1cc([N+](=O)[O-])ccc1NC(=O)/C=C/c1cccs1	·	·	-62	·	35*	70
Cc1cccc(/C(N)=N/OC(=O)c2ccncc2)c1	-6	-3	-68	-26	34*	69
Cc1cccc(NC(=O)/C=C/c2ccc([N+](=O)[O-])s2)c1	·	·	95*	·	·	-95

# (cont.)
molecule	miR122 inh	PGC1a acetyl inh	TRPM1 prom inh	UUG fidelity	Wnt bcat act	MITF act
CCN(CC)c1ccc(NC2=C(Cl)C(=O)c3ccccc3C2=O)cc1	12	68*	92*	-26	·	-92
COC1=C(Nc2ccc(O)cc2)C(=O)c2ccccc2C1=O	·	·	80*	·	7	-80
COC1=C(Nc2ccc(OC)cc2)C(=O)c2ccccc2C1=O	·	·	31	·	?	-27
Cc1ccc(NC2=C(N3CCOCC3)C(=O)c3ccccc3C2=O)cc1	-5	-5	6	-40	·	-6
Cc1noc(C)c1NC(=O)Nc1cccc2c1O[C@H](CN(C)C(=O)Nc1ccccc1)[C@H](C)CN([C@H](C)CO)C2=O	2[16.7 µM]	-6	·	-3	·	·
Cc1[nH]c2c(ccc3ccccc32)c1C1C(CCN)C1(C)C (stereo unspecified)	2	·	71*	-11	-9	·
O=C(O)CCCC(=O)Nc1ccc(OCc2nc3ccccc3s2)cc1	5	11	-2	-9	51*	0
CO[C@@H]1CN(C)C(=O)c2ccc(NC(=O)C3CCCC3)cc2OC[C@@H](C)N(C(=O)Nc2ccc(C(F)(F)F)cc2)C[C@H]1C	17[16.7 µM]	·	·	11	·	·
Oc1ccc(C=NNC(=S)Nc2ccc(F)cc2)c(O)c1	9	-4	-18	-38	37*	17
Cc1noc(C)c1NC(=O)NCC[C@H]1CC[C@@H](NC(=O)Nc2cccc(F)c2)[C@@H](CO)O1	·	11	·	10	·	·
CC(C)(C)C(=O)NNC(=O)c1cc2sccc2s1	·	·	5	·	41*	-4
CC(C)(C)OC(=O)NNC(=O)c1cccs1	-3	0	-7	·	-3	6

# Source: PubChem (Broad Institute)
